ChEMBL document CHEMBL5620418

The chains behind the UniProt entries cited, without tags or fusion partners.
UniProt P35372, whole entry, looked up: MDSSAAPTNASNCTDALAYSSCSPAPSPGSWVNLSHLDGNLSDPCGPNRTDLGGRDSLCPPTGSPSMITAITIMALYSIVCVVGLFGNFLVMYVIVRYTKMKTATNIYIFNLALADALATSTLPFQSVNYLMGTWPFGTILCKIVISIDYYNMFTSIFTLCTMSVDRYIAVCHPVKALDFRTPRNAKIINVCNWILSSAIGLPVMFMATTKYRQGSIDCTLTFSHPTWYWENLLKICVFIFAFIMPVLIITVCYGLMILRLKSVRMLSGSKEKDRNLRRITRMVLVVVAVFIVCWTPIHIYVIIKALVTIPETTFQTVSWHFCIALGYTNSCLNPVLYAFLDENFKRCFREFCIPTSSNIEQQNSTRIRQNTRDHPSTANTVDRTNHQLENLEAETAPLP
UniProt P41143, whole entry, looked up: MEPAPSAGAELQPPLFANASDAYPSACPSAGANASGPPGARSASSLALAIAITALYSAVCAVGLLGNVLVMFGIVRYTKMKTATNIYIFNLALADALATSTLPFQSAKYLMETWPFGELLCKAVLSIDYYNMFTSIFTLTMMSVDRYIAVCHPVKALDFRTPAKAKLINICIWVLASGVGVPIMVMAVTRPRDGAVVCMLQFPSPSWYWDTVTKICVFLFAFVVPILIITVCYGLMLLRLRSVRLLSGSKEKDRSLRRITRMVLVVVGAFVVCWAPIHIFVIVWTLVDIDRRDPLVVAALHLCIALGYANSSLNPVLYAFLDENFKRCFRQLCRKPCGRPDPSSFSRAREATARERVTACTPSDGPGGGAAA

Assays:
[1] = molecular target: Mu-type opioid receptor (Homo sapiens, UniProt P35372); experiment: Binding affinity to mu-opioid receptor (unknown origin)
[2] = molecular target: Delta-type opioid receptor (Homo sapiens, UniProt P41143); experiment: Binding affinity to delta-opioid receptor (unknown origin)

**Q.** Which results are given for `CN(C(=O)Cc1ccc(Cl)c(Cl)c1)[C@@H]1CCCC[C@H]1N1CCCC1`?
**A.** Ki [1]: 1400 nM; Ki [2]: > 5000 nM
